## Yeast mating assay B: variants of the scFv Ab-14

The measurements come from Li et al. 2023 (doi:10.1038/s41467-023-39022-2) through the FLAb antibody collection.

All variants were tested on one target, the spike HR2 peptide PDVDLGDISGINAS (SARS-CoV-2).

Each scFv is VH, a (GGGGS)3 linker, VL, as in the parent Ab-14, and differs from it in the CDRs of the heavy chain only.
VH: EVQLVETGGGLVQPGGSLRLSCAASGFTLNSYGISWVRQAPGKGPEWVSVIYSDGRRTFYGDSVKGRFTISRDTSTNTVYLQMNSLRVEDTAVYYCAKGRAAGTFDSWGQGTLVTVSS
VL: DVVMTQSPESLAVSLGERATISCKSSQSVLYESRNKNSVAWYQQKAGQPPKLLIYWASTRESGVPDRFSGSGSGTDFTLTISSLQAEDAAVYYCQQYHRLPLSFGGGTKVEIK

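Phage display of a naive human antibody library on the peptide gave the parent. This is the validation round: designs drawn from the data on random variants, tested in the same kind of assay. Their group label is 14H_En_Gibbs (En: ensemble of fine-tuned language models; Gibbs: Gibbs sampling). In AlphaSeq, yeast of one mating type display the scFv and yeast of the other type display the target. After mating in shaken culture at 30 °C for 16 h, diploids were selected and their barcode pairs sequenced. Scores were corrected for input abundance and mapped to Kd with protein pairs of known affinity run in the same pool. The assay was run in six technical replicates.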

Variants are written as CDR1, CDR2 and CDR3 of the heavy chain (limits as in the source). Parent: GFTLNSYGIS, VIYSDGRRTFYGDSVK, GRAAGTFDS. Scale: log10 of Kd in nM, estimated from mating counts; low values are strong binders. The mean shown is taken over the replicates in which the pair was detected. Where no diploid with the target was found in that replicate, the entry reads "n.d.": below detection, most likely a poor binder, though not proof of it. The parent sequence was in this pool as ten entries: three were never detected, three once, and four in most replicates, with averages from 0.34 to 2.37. The authors' rule: three or more of the six replicates give a measured affinity, fewer mean a poor binder. As a blank, each scFv also met three strains without target: over all heavy chain designs, 1% of these pairings were detected, typically at 2.08 and seldom below 0.84. Also given: how often the same scFv was detected with the empty control strains, with their mean in brackets. Values of this round are not directly comparable with the first-round values of the same sequences.

CDR-H1	CDR-H2	CDR-H3	replicates, log10 nM	log10 Kd (nM), mean	signal with controls
GKNLDEYGIS	VIYADGKRTAYADSVK	NSVMSGRVT	n.d. n.d. n.d. n.d. n.d. 1.72	1.72	0 of 18
GFDLNEYGIS	VIYADGMRVRYVENVK	GMGQTSGVT	n.d. n.d. n.d. n.d. n.d. n.d.	n.d.	0 of 18
GFDIEEYGIS	VIYADGVRMMYASNFK	GKIAGTGLL	n.d. 1.79 0.43 0.19 0.82 n.d.	0.81	0 of 18
GEDLSEYGIS	VIYADGRKTAYSNAFK	GAVGGIFVN	n.d. n.d. n.d. n.d. n.d. n.d.	n.d.	0 of 18
GFNLDDMGIS	VIYADGERTAYSDSVK	GHEGYFMNV	n.d. n.d. n.d. n.d. n.d. n.d.	n.d.	0 of 18
GFDLEKYGIS	VIYADGKRVAYTDDVK	GVTGGMLLS	n.d. n.d. n.d. n.d. n.d. n.d.	n.d.	0 of 18
GFQLDEFGIS	VIYADGKRSSYVDDVK	GEGTGAFSV	n.d. n.d. n.d. n.d. n.d. n.d.	n.d.	0 of 18
GFEVDEYGIS	VIYADGKRSMYANKVK	GVIAGMMHV	n.d. n.d. n.d. n.d. n.d. n.d.	n.d.	0 of 18
GQDLNEYGIS	VIYADGLRTAYSENVK	GNQSQFDDG	n.d. n.d. n.d. n.d. n.d. n.d.	n.d.	0 of 18
GFDLNEYGIS	VIYADGHRTKYSNNVK	GGQADIALL	n.d. n.d. n.d. n.d. n.d. n.d.	n.d.	0 of 18
GFGINEYGIS	VIYADGMRRSYADSVK	GAESGYMVV	n.d. n.d. n.d. n.d. n.d. n.d.	n.d.	0 of 18
GKSLDEYGIS	VIYADGLRTQYSNKVK	GLEGFAFDQ	n.d. n.d. n.d. n.d. n.d. n.d.	n.d.	2 of 18 (2.76)
GFDLEEYGIS	VIYADGMRVSYTNTVK	GQNSMISAT	n.d. n.d. n.d. n.d. n.d. n.d.	n.d.	0 of 18
GMDLDEYGIS	VIYADGHRRYYAANVK	GVNIDGFDL	n.d. 3.41 n.d. n.d. n.d. n.d.	3.41	0 of 18
GWDLEKYGIS	VIYADGKRSEYSDAVK	GQQAGTLNT	n.d. n.d. n.d. 2.11 1.42 n.d.	1.76	0 of 18
GNDIQEYGIS	VIYADGQRVNAASQVK	GKQAGTFNL	n.d. n.d. n.d. n.d. n.d. 1.96	1.96	0 of 18
GFDLMEYGIS	VIYADGTRTMYTDKVK	GWFGDTGKT	n.d. n.d. n.d. n.d. n.d. n.d.	n.d.	0 of 18
GFNIQEYGIS	VIYADGHRTAYAEPVK	GEDGGTIDT	0.54 -0.76 0.04 -0.81 0.00 -0.16	-0.19	0 of 18
GDFLDEYGIS	VIYADGMRSSYSNDVK	GNNFGNKMV	n.d. n.d. n.d. n.d. n.d. n.d.	n.d.	1 of 18 (2.72)
GFELSEYGIS	VIYADGVRVEYTQSVK	GQLGGHFNV	n.d. n.d. n.d. n.d. n.d. n.d.	n.d.	0 of 18
GFNLDEYGIS	VIYADGNRTQYLENVK	GTNWGAVDL	n.d. n.d. n.d. n.d. n.d. n.d.	n.d.	1 of 18 (1.52)
GFDLQEYGIS	VIYADGARKSYTNSVK	GVWGATMDV	n.d. n.d. n.d. n.d. n.d. n.d.	n.d.	0 of 18
GFNLDEYGIS	VIYADGRRTAYAESVK	NSNMSGRVT	n.d. n.d. n.d. n.d. n.d. n.d.	n.d.	0 of 18
GFDLNEMGIS	VIYADGDRKAYQDAVK	GDVSGDFDE	n.d. n.d. 2.31 n.d. n.d. n.d.	2.31	0 of 18
GKSLDEYGIS	VIYADGTRAFYANSVK	GLITMVFGK	n.d. n.d. n.d. n.d. n.d. n.d.	n.d.	0 of 18
GESLDSYGIS	VIYADGMRTSYDNSVK	GVWAGTFDE	n.d. n.d. n.d. n.d. n.d. n.d.	n.d.	0 of 18
GFDIEEYGIS	VIYADGLRTVYADDVK	GIAKGSSLT	n.d. n.d. n.d. n.d. n.d. n.d.	n.d.	0 of 18
GFDLNEYGIS	VIYADGQRVSYAQNVK	GLVGKLGVV	n.d. n.d. n.d. n.d. n.d. n.d.	n.d.	0 of 18
GEDLDEYGVS	VIYADGIRSTYADAVK	GKHGGAFFV	n.d. n.d. 3.39 n.d. n.d. n.d.	3.39	0 of 18
GFGLGEYGIS	VIYADGMRAAYVTSVK	GSIAGTFFT	0.74 -0.22 -0.29 0.07 n.d. 0.05	0.07	0 of 18
GFEIEEYGIS	VIYADGQRSSYVDDVK	GKVDTVVMY	n.d. n.d. n.d. n.d. n.d. n.d.	n.d.	0 of 18
GDQLDEYGIS	VIYADGMRTAYADSFK	GNKSVNIGI	n.d. n.d. n.d. n.d. n.d. n.d.	n.d.	0 of 18
GDGLDEYGIS	VIYADGQRKFYADNVK	GVFSSLGQV	1.67 1.81 1.48 1.69 3.56 1.05	1.88	0 of 18
GFDLNEYGIS	VIYADGIRQHYKDKVK	GVVFGNVLF	n.d. n.d. n.d. n.d. n.d. n.d.	n.d.	0 of 18

Picked from the list: the 2 lowest averages where every replicate gave a value.

{"CDR-H1": "GFNIQEYGIS", "CDR-H2": "VIYADGHRTAYAEPVK", "CDR-H3": "GEDGGTIDT", "replicates, log10 nM": "0.54 -0.76 0.04 -0.81 0.00 -0.16", "log10 Kd (nM), mean": "-0.19", "signal with controls": "0 of 18"}
{"CDR-H1": "GDGLDEYGIS", "CDR-H2": "VIYADGQRKFYADNVK", "CDR-H3": "GVFSSLGQV", "replicates, log10 nM": "1.67 1.81 1.48 1.69 3.56 1.05", "log10 Kd (nM), mean": "1.88", "signal with controls": "0 of 18"}